Experimental data as given in patent US9028810B2, “Composition for inducing migration of neural stem cells containing periostin as effective ingredient” (Ajou University Industry—Academic Cooperations Foundatin, priority 2010, dated 2015).

System: neural stem cells
Assay: In vitro migration assay using ERK pathway and CDK5 pathway inhibitors
Format: cell-based
Settings: Homo sapiens, Neural stem cell, 12 h, read-out: inhibition of migration of neural stem cells induced by periostin
From the text: It has been reported that, in the development of the central nervous system, neural stem cells migrate from the subventricular zone to cortex through radial glial cells using the ERK (extracellular signal regulated kinase) and CDK5 signaling pathways, and in the neuronal migration, DCX participated in nucleus translocation, neucleokinesis (Niethammer et al., 2000).
Cultured neural stem cells were detached with 0.05% trypsin, washed with DMEM medium and re-suspended in DMEM medium, after which 5×10^4 cells were inoculated into an upper chamber (Costar Transwell) in 200 μl of 10% FBS-containing DMEM medium.
After 12 hours, in order to determine the number of cells that migrated from the upper chamber through a 8-μm porous polycarbonate membrane to the lower portion of the membrane in response to the stimulation of the lower chamber, the migrated neural stem cells were stained with hematoxylin & eosin and counted.

SMILES: CC[C@H](CO)Nc1nc(NCc2ccccc2)c2ncn(C(C)C)c2n1 [roscovitine]
- inhibition at 0.02 µM: 94%
